The values that follow come from PubChem BioAssay AID602340 (Broad Institute, 2012).

The structures appear in SMILES notation. The entries are a selection whose mix differs from that of the whole data set. Active and inactive are the calls of the source.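 Rule for the calls: active = mean ATP rescue above about 67%, or every replicate alone reaching that limit (limit read from the data, passing the limit was not always enough); inconclusive = no clear call, values can overlap the other calls; inactive = mean under the limit and some replicate under it.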

The nature of this assay: suppressors of statin myotoxicity in C2C12 myotubes, primary screen, cell-based, single point, plate reader (AID 602340).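 Note: myotubes were challenged with 10 µM simvastatin during compound exposure.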 The following applies: C2C12 myotubes + simvastatin, ATP luminescence, 48 h; at 7.49 µM; active compounds read high; scaled: DMSO 0, geranylgeraniol control 100.
Take `CCC(=O)N(c1ccccc1)C1(COC)CCN(CCc2cccs2)CC1`: the rescue of ATP level is inactive: 7.81%.

In the case of `CCC(=O)N(c1ccccc1)C1(COC)CCN(CCn2nnn(CC)c2=O)CC1`, the rescue of ATP level was inactive: 0.402%.
